In publication PMC3497018, “Anti-Human Rhinoviral Activity of Polybromocatechol Compounds Isolated from the Rhodophyta, Neorhodomela aculeata” (Marine Drugs, 2012):

Experiments:
HRV2 = experiment: Antiviral activity, SRB method using CPE reduction, HRV2-infected HeLa cells; type: cell-based, human rhinovirus
Protocol: (§1) HRV 2 and 3 were provided by the ATCC (American Type Culture Collection, Manassas, VA, USA) and were propagated in human epitheloid carcinoma cervix (HeLa) cells at 32 °C. HeLa cells were maintained in minimal essential medium (MEM) supplemented with 10% fetal bovine serum (FBS) and 0.01% antibiotic-antimycotic.
(§2) Assays of antiviral activity and cytotoxicity were evaluated by the SRB method using CPE reduction, recently reported. […] Next day, medium was removed and then washed with 1× phosphate buffered saline (PBS). Infectivity of virus stock was determined by the SRB method using cytopathic effect (CPE) reduction and was determined as infectivity of the virus by SRB ID50 (50% infective dose). […] The antiviral activity of each test material was determined with a 10-fold diluted concentration ranging from 0.1 to 100 μg/mL. Three wells were used as virus controls (virus-infected non-drug-treated cells) while three wells were used as cell controls (non-infected non-drug-treated cells). The culture plates were incubated at 37 °C in 5% CO2 for 2 days. […] The absorbance was read at 540 nm by using a VERSAmax microplate reader (Molecular Devices, Palo Alto, CA, USA) with a reference absorbance at 620 nm. […] The percent protection achieved by the test compound in HRV2 or HRV3-infected cells was calculated by the following formula: […]

HRV3 = experiment: Antiviral activity, SRB method using CPE reduction, HRV3-infected HeLa cells; type: cell-based, human rhinovirus
Protocol: as §1, §2

HeLa cells = experiment: Microscopic observation of morphology of non-infected HeLa cells treated with compound; conditions: 20 μg/mL, 2 days
Protocol: After a 2-day infection of HeLa cells with HRV2 and HRV3, the effect of compound 1 and compound 3 on HRV-induced cytopathic effect (CPE) investigated.
Figure 3 The effect of compound 1 or compound 3 on HRV2 (left group; I) and HRV 3 (right group; II)-induced CPE. The virus-infected cells were treated with compound 1 or compound 3 of 20 μg/mL. After incubation at 32 °C in 5% of CO2 for 2 days, the cell morphology was photographed under a microscope.
Briefly, HeLa cells were seeded onto a 96-well culture plate at a concentration of 2 × 10^4 cells per well. The next day, the medium was removed and washed with PBS. Then, 0.09 mL of diluted virus suspension and 0.01 mL of medium supplemented with 20 mM MgCl2 containing compound 1 or compound 3 of 20 μg/mL were added. After incubation at 32 °C in 5% CO2 for 2 days, the morphology of cells was observed under microscope of 32 × 10 magnifications (St Ernst-Leitz, Wetzlar, Germany), and images were recorded.

NC(=O)c1ncn([C@@H]2O[C@H](CO)[C@@H](O)[C@H]2O)n1 [Ribavirin, reference compound]
TI, therapeutic index = CC50/IC50 (HRV2; Table 2): 1.17 | TI, therapeutic index = CC50/IC50 (HRV2; Table 4): 9.30 | TI, therapeutic index = CC50/IC50 (HRV3; Table 2): 1.40 | TI, therapeutic index = CC50/IC50 (HRV3; Table 4): 3.93 | signs of cytotoxicity / cell morphology (HeLa cells): No signs of cytotoxicity
